Protein sequences, listed by entry. Tags and fused reporters are not part of them.
UniProt Q13422, whole entry: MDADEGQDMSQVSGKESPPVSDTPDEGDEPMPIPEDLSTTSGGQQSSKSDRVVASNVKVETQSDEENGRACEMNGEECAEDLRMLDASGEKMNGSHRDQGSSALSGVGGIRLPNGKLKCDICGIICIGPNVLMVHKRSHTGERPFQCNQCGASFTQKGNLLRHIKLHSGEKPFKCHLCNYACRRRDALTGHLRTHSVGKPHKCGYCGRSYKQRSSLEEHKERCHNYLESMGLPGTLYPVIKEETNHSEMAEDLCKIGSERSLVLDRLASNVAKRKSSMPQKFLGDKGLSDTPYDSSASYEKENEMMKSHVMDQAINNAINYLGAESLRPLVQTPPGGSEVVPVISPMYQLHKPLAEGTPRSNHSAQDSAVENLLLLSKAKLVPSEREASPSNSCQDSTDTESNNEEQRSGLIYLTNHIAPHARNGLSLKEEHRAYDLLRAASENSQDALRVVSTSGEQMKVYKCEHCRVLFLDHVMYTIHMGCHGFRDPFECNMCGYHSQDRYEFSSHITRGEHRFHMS
UniProt Q96SW2, whole entry: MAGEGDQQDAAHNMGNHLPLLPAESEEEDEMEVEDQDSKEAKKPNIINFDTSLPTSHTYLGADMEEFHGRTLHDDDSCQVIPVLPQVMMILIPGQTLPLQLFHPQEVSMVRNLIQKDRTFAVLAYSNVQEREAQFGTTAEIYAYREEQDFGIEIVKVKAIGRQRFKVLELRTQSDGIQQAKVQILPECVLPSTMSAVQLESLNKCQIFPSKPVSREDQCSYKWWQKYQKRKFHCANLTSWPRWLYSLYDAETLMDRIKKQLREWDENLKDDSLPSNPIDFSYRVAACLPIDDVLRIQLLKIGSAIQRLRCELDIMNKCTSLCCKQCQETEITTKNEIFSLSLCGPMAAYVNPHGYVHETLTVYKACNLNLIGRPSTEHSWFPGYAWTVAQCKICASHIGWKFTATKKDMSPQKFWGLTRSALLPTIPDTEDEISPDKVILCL
UniProt Q9UKT9, whole entry: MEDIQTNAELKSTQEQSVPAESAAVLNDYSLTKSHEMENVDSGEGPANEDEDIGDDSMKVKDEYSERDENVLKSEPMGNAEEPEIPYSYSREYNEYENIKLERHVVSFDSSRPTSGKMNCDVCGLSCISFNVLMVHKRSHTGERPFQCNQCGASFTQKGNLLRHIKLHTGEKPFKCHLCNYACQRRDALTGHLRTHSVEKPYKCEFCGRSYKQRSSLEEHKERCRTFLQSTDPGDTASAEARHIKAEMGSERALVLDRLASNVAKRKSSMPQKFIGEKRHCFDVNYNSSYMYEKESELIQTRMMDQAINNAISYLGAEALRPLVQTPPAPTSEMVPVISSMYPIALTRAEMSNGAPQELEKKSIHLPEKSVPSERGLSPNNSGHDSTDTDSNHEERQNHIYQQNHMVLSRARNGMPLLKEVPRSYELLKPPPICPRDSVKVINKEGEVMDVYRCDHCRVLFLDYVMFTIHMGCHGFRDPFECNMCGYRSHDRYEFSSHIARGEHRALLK
UniProt Q9UKS7, whole entry: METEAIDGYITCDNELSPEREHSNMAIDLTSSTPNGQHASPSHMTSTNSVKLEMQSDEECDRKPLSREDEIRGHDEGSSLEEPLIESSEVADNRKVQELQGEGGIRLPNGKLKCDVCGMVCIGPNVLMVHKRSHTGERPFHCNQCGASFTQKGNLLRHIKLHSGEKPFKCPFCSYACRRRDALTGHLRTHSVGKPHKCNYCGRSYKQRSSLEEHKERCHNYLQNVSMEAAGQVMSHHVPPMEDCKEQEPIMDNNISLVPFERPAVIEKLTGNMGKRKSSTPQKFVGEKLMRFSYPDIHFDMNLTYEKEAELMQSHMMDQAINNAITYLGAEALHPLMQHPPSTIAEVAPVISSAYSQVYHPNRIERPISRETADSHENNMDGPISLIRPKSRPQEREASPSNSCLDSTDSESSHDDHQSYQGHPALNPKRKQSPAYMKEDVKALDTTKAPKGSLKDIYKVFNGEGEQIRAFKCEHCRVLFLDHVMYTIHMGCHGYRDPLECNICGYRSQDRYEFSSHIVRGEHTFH
UniProt P48729, whole entry: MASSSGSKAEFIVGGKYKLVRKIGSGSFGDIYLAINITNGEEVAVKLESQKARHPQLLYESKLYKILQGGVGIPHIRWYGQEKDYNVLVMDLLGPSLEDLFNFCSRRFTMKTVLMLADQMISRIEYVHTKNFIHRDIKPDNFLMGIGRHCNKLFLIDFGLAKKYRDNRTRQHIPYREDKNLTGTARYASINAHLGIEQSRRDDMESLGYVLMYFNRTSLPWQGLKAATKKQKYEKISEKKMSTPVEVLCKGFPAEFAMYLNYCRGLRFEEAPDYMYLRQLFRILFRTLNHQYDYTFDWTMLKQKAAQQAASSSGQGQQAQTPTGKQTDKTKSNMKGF
UniProt P15170, whole entry: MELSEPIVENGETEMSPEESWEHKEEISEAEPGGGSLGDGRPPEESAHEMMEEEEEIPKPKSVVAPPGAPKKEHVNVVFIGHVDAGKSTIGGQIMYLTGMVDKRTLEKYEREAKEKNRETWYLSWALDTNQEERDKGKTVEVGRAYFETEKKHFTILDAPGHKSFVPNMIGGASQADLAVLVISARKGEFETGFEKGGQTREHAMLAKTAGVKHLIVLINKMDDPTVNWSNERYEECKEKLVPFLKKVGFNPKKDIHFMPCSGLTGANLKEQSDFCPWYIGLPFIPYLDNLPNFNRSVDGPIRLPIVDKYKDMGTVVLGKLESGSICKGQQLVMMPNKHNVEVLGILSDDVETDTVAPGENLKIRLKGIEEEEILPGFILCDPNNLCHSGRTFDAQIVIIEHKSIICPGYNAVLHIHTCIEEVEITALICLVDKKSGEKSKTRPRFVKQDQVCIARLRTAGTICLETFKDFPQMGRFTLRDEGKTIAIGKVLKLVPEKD
UniProt P30291, whole entry: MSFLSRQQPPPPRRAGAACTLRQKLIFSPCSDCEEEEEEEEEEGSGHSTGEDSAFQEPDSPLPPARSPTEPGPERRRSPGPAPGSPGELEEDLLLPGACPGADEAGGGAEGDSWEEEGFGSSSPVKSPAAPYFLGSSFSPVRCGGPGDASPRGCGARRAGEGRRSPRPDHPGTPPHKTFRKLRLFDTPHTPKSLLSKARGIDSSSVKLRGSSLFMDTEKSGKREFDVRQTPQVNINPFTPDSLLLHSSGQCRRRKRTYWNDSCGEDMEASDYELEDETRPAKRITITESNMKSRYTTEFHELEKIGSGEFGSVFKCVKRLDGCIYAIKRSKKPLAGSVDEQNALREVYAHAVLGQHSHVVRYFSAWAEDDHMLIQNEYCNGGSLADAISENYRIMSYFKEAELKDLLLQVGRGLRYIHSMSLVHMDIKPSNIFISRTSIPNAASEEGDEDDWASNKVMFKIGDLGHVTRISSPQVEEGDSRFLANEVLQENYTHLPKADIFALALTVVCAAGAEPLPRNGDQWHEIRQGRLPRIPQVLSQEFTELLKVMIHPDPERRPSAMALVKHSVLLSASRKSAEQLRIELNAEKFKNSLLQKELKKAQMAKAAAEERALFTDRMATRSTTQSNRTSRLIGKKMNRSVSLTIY
UniProt Q16531, whole entry partner: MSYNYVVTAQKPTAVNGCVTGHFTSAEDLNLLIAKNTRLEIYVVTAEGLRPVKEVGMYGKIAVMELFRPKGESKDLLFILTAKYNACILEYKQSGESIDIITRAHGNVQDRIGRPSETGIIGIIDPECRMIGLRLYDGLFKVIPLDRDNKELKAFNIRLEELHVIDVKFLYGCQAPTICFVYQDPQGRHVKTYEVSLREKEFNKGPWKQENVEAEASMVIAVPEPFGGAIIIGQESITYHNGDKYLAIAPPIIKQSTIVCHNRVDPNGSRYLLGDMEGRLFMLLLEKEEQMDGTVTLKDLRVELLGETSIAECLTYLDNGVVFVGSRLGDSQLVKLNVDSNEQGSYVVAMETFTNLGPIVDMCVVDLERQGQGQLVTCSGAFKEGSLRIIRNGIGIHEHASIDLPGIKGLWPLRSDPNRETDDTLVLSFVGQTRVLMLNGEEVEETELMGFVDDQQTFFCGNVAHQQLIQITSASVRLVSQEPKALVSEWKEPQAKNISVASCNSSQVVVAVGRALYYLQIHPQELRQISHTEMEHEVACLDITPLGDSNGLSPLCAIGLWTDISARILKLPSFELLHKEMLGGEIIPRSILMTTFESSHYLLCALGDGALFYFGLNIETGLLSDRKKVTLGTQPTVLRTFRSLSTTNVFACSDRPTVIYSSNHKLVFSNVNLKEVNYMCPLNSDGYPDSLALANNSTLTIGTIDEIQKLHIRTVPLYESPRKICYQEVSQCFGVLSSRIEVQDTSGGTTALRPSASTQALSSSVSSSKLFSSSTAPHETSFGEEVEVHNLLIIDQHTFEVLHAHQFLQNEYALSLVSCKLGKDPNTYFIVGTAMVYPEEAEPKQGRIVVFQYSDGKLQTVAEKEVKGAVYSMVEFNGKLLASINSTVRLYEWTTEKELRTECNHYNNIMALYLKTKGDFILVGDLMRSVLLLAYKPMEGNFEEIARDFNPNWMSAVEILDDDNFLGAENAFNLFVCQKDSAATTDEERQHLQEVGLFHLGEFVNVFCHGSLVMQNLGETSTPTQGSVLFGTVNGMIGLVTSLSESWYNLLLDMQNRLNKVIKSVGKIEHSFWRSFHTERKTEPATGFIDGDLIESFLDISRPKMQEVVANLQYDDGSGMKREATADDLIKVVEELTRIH

In EP4834897A1, “COMPOUNDS WITH TWO AZAHETEROCYCLES SUBSTITUTED ISOINDOLINONE SKELETON AND USES THEREOF” (dated 2026):

Columns and labels:
IKZF1 = IKZF1 (Homo sapiens, UniProt Q13422+Q96SW2); experiment: Western blot assay of substrate protein degradation in hPBMCs; conditions: 24 hours treatment, compounds at 50 nM and 500 nM (concentration behind the class not stated)
IKZF3 = IKZF3 (Homo sapiens, UniProt Q96SW2+Q9UKT9); experiment: as above; conditions: 24 hours treatment, compounds at 50 nM and 500 nM (concentration behind the class not stated)
IKZF2 = IKZF2 (Homo sapiens, UniProt Q96SW2+Q9UKS7); experiment: as above; conditions: 24 hours treatment, compounds at 50 nM and 500 nM (concentration behind the class not stated)
CK1α = CK1α (Homo sapiens, UniProt P48729+Q96SW2); experiment: as above; conditions: 24 hours treatment, compounds at 50 nM and 500 nM (concentration behind the class not stated)
GSPT1 = GSPT1 (Homo sapiens, UniProt P15170+Q96SW2); experiment: as above; conditions: 24 hours treatment, compounds at 50 nM and 500 nM (concentration behind the class not stated)
WEE1 = WEE1 (Homo sapiens, UniProt P30291+Q96SW2); experiment: as above; conditions: 24 hours treatment, compounds at 50 nM and 500 nM (concentration behind the class not stated)
CRBN = CRBN (Homo sapiens, UniProt Q96SW2); experiment: CRBN binding affinity by HTRF (CEREBLON BINDING kit); conditions: for Inhibition Rate at 0.5 µM (%) / Inhibition Rate at 2 µM (%): CRBN binding, HTRF; for Inhibition Rate at 0.5 µM (%): compound at 0.5 µM; for Inhibition Rate at 2 µM (%): compound at 2 µM; for IC50: read-out: HTRF IC50, human Cereblon WT GST-tagged protein, 3 hours at room temperature

| Structure (SMILES) | Inhibition Rate at 0.5 µM (%) (CRBN) | Inhibition Rate at 2 µM (%) (CRBN) | IC50 (CRBN) [nM] | substrate protein remaining % (IKZF 1) (IKZF1) | substrate protein remaining % (IKZF3) (IKZF3) | substrate protein remaining % (IKZF2) (IKZF2) | substrate protein remaining % (CK1a) (CK1α) | substrate protein remaining % (GSPT1) (GSPT1) | substrate protein remaining % (WEE1) (WEE1) |
| --- | --- | --- | --- | --- | --- | --- | --- | --- | --- |
| O=C1CCC(N2Cc3c(CN4CCC(N5CCN(c6noc7cc(F)ccc67)CC5)CC4)cccc3C2=O)C(=O)N1 (stereo not drawn) | a2 (20% < a2 ≤ 30%) | a5 (53% < a5 ≤ 60%) |  | B (80%< substrate protein remaining %≤ 100%) | B (80%< substrate protein remaining %≤ 100%) | B (80%< substrate protein remaining %≤ 100%) | A (0% ≤ substrate protein remaining % ≤ 80%) | B (80%< substrate protein remaining %≤ 100%) | B (80%< substrate protein remaining %≤ 100%) |
| CC1(C)CCC(C(=O)N2CCN(C3CCN(C(=O)c4ccc5c(c4)C(=O)N(C4CCC(=O)NC4=O)C5=O)CC3(F)F)CC2)=C(c2ccc(Cl)cc2)C1 (stereo not drawn) | a3 (30% < a3 ≤ 40%) | a6 (60% < a6 ≤ 70%) |  | B (80%< substrate protein remaining %≤ 100%) | B (80%< substrate protein remaining %≤ 100%) | B (80%< substrate protein remaining %≤ 100%) | B (80%< substrate protein remaining %≤ 100%) | A (0% ≤ substrate protein remaining % ≤ 80%) | B (80%< substrate protein remaining %≤ 100%) |
| O=C1CCC(N2Cc3ccc(CN4CCC(N5CCC(c6noc7cc(F)ccc67)CC5)C(F)(F)C4)cc3C2=S)C(=O)N1 (stereo not drawn) | a4 (40% < a4 ≤ 53%) | a6 (60% < a6 ≤ 70%) |  | B (80%< substrate protein remaining %≤ 100%) | B (80%< substrate protein remaining %≤ 100%) | B (80%< substrate protein remaining %≤ 100%) | B (80%< substrate protein remaining %≤ 100%) | A (0% ≤ substrate protein remaining % ≤ 80%) | B (80%< substrate protein remaining %≤ 100%) |
| O=C1CCC(N2Cc3c(C(=O)N4CCC(N5CCN(C(c6ccccc6)c6ccccn6)CC5)C(F)(F)C4)cccc3C2=O)C(=O)N1 (stereo not drawn) | a3 (30% < a3 ≤ 40%) | a6 (60% < a6 ≤ 70%) |  | A (0% ≤ substrate protein remaining % ≤ 80%) | A (0% ≤ substrate protein remaining % ≤ 80%) | A (0% ≤ substrate protein remaining % ≤ 80%) | B (80%< substrate protein remaining %≤ 100%) | A (0% ≤ substrate protein remaining % ≤ 80%) | A (0% ≤ substrate protein remaining % ≤ 80%) |
| O=C1CCC(N2Cc3c(CN4CCC(N5CCN(C(c6ccccc6)c6ccccn6)CC5)C(F)(F)C4)cccc3C2=S)C(=O)N1 (stereo not drawn) | a5 (53% < a5 ≤ 60%) | a8 (80% < a8 ≤100%) |  | B (80%< substrate protein remaining %≤ 100%) | B (80%< substrate protein remaining %≤ 100%) | B (80%< substrate protein remaining %≤ 100%) | B (80%< substrate protein remaining %≤ 100%) | B (80%< substrate protein remaining %≤ 100%) | A (0% ≤ substrate protein remaining % ≤ 80%) |
| CC1(C)CCC(C(=O)N2CCN(C3CCN(Cc4ccc5c(c4)CN(C4CCC(=O)NC4=O)C5=O)CC3(F)F)CC2)=C(c2ccc(Cl)cc2)C1 (stereo not drawn) |  |  | 100 to 500 | A (0% ≤ substrate protein remaining % ≤ 80%) | A (0% ≤ substrate protein remaining % ≤ 80%) | A (0% ≤ substrate protein remaining % ≤ 80%) | B (80%< substrate protein remaining %≤ 100%) | A (0% ≤ substrate protein remaining % ≤ 80%) | A (0% ≤ substrate protein remaining % ≤ 80%) |

Continued, in another order:

| Inhibition Rate at 0.5 µM (%) (CRBN) | Inhibition Rate at 2 µM (%) (CRBN) | IC50 (CRBN) [nM] | Structure (SMILES) | substrate protein remaining % (IKZF 1) (IKZF1) | substrate protein remaining % (IKZF3) (IKZF3) | substrate protein remaining % (IKZF2) (IKZF2) | substrate protein remaining % (CK1a) (CK1α) | substrate protein remaining % (GSPT1) (GSPT1) | substrate protein remaining % (WEE1) (WEE1) |
| --- | --- | --- | --- | --- | --- | --- | --- | --- | --- |
| a3 (30% < a3 ≤ 40%) | a7 (70% < a7 ≤80%) |  | O=C1CCC(N2Cc3cc(C(=O)N4CCC(N5CCN(c6noc7cc(F)ccc67)CC5)C(F)(F)C4)cc(F)c3C2=O)C(=O)N1 (stereo not drawn) | B (80%< substrate protein remaining %≤ 100%) | A (0% ≤ substrate protein remaining % ≤ 80%) | B (80%< substrate protein remaining %≤ 100%) | B (80%< substrate protein remaining %≤ 100%) | A (0% ≤ substrate protein remaining % ≤ 80%) | B (80%< substrate protein remaining %≤ 100%) |
|  |  | 1000 to 1500 | O=C1CCC(N2Cc3cc(CN4CCC(N5CCN(C(c6ccccc6)c6ccccc6)CC5)CC4)c(F)cc3C2=O)C(=O)N1 (stereo not drawn) | B (80%< substrate protein remaining %≤ 100%) | B (80%< substrate protein remaining %≤ 100%) | A (0% ≤ substrate protein remaining % ≤ 80%) | B (80%< substrate protein remaining %≤ 100%) | A (0% ≤ substrate protein remaining % ≤ 80%) | B (80%< substrate protein remaining %≤ 100%) |
|  |  | 500 to 1000 | O=C1CCC(N2Cc3cc(CN4CCC(N5CCN(c6cccc(Cl)c6Cl)CC5)CC4)cc(F)c3C2=O)C(=O)N1 (stereo not drawn) | A (0% ≤ substrate protein remaining % ≤ 80%) | B (80%< substrate protein remaining %≤ 100%) | A (0% ≤ substrate protein remaining % ≤ 80%) | B (80%< substrate protein remaining %≤ 100%) | A (0% ≤ substrate protein remaining % ≤ 80%) | B (80%< substrate protein remaining %≤ 100%) |
| a3 (30% < a3 ≤ 40%) | a6 (60% < a6 ≤ 70%) |  | O=C1CCC(N2Cc3cc(C(=O)N4CCC(N5CCN(C(c6ccccc6)c6ccccc6)CC5)CC4)cc(F)c3C2=O)C(=O)N1 (stereo not drawn) | B (80%< substrate protein remaining %≤ 100%) | B (80%< substrate protein remaining %≤ 100%) | B (80%< substrate protein remaining %≤ 100%) | B (80%< substrate protein remaining %≤ 100%) | A (0% ≤ substrate protein remaining % ≤ 80%) | B (80%< substrate protein remaining %≤ 100%) |
| a7 (70% < a7 ≤80%) | a8 (80% < a8 ≤100%) |  | O=C1CCC(N2Cc3cc(CCN4CCC(N5CCN(C(c6ccccc6)c6ccccc6)CC5)C(F)(F)C4)ccc3C2=O)C(=O)N1 (stereo not drawn) | B (80%< substrate protein remaining %≤ 100%) | B (80%< substrate protein remaining %≤ 100%) | B (80%< substrate protein remaining %≤ 100%) | B (80%< substrate protein remaining %≤ 100%) | A (0% ≤ substrate protein remaining % ≤ 80%) | B (80%< substrate protein remaining %≤ 100%) |
| a3 (30% < a3 ≤ 40%) | a6 (60% < a6 ≤ 70%) |  | O=C1CCC(N2Cc3cc(C(=O)N4CCC(N5CCN(C(c6ccccc6)c6ccccn6)CC5)C(F)(F)C4)cc(F)c3C2=O)C(=O)N1 (stereo not drawn) | B (80%< substrate protein remaining %≤ 100%) | A (0% ≤ substrate protein remaining % ≤ 80%) | A (0% ≤ substrate protein remaining % ≤ 80%) | A (0% ≤ substrate protein remaining % ≤ 80%) | A (0% ≤ substrate protein remaining % ≤ 80%) | B (80%< substrate protein remaining %≤ 100%) |
|  |  | 1000 to 1500 | O=C1CCC(N2Cc3cc(CN4CCC(N5CCN(c6cccc(Cl)c6Cl)CC5)CC4)c(F)cc3C2=O)C(=O)N1 (stereo not drawn) | A (0% ≤ substrate protein remaining % ≤ 80%) | B (80%< substrate protein remaining %≤ 100%) | A (0% ≤ substrate protein remaining % ≤ 80%) | B (80%< substrate protein remaining %≤ 100%) | A (0% ≤ substrate protein remaining % ≤ 80%) | A (0% ≤ substrate protein remaining % ≤ 80%) |
| a3 (30% < a3 ≤ 40%) | a6 (60% < a6 ≤ 70%) |  | CC1(C)CCC(CN2CCN(C3CCN(Cc4cccc5c4CN(C4CCC(=O)NC4=O)C5=S)CC3(F)F)CC2)=C(c2ccc(Cl)cc2)C1 (stereo not drawn) | B (80%< substrate protein remaining %≤ 100%) | B (80%< substrate protein remaining %≤ 100%) | B (80%< substrate protein remaining %≤ 100%) | B (80%< substrate protein remaining %≤ 100%) | A (0% ≤ substrate protein remaining % ≤ 80%) | A (0% ≤ substrate protein remaining % ≤ 80%) |
